Literature values, collected in patent US20210379099A1 (priority 2020, published 2021).

Settings: cited from earlier work

cucurbit[8]uril
water solubility: < 10 µM
